## AlphaSeq binding of Ab-14 light chain variants to a spike HR2 peptide

Binding partner: SARS-CoV-2 spike HR2 peptide, sequence PDVDLGDISGINAS.

Parent: Ab-14, a human scFv built as VH, a 15-residue (Gly4Ser)3 linker, VL. Only the CDRs of the light chain vary.
VH: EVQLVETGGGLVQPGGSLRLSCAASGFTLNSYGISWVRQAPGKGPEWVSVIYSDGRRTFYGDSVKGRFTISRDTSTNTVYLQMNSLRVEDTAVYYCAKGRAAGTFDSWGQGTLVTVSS
VL: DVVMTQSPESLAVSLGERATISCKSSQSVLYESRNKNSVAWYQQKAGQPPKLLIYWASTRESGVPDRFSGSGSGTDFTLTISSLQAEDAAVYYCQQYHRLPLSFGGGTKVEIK

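The parent was found by panning a naive human phage display library on the peptide. In library AAYL50, one, two or three CDR residues were substituted; doubles and triples were drawn at random. In AlphaSeq, yeast of one mating type display the scFv and yeast of the other type display the target. After mating in shaken culture at 30 °C for 16 h, diploids were selected and their barcode pairs sequenced. Scores were corrected for input abundance and mapped to Kd with protein pairs of known affinity run in the same pool. Each pool was mated in three replicate cultures.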

Each variant is given by its three light chain CDRs, as the data file delimits them; those of the parent are KSSQSVLYESRNKNSVA, WASTRES, QQYHRLPLS. Scale: log10 of Kd in nM, estimated from mating counts; low values are strong binders. "nd" marks a missing value. The strain was present, yet no cells mated with the target were sequenced in that replicate, which points to weak or no binding. Background: pairings of library AAYL50 with three empty control strains gave a value in 18% of cases (median 4.19, 5th percentile 2.99). Values in that range, when seen in few replicates, are hard to tell from nonspecific mating. Also given: how often the same scFv was detected with the empty control strains, with their mean in brackets. For reference, the parent read 0.65 as the reference entry and 1.68 as a member of this library.

CDR-L1,CDR-L2,CDR-L3,log10 Kd (nM) by replicate,empty controls
RSSQSVLYEVRNDNSVA,WASTRES,QQYHRLPLS,2.13 1.60 1.43,1/9 (2.96)
KSSQSVLYESRNYNSVA,WASTYES,QEYHRLPLS,nd nd nd,3/9 (4.55)
KSSQSVLYESRFKNSVA,WASTRES,QQYWRLPLQ,0.97 1.15 1.26,2/9 (4.47)
KSSQSVLYESRNKNSVP,WASKRES,QWYHRLPLS,nd nd nd,1/9 (2.14)
KSSQSVLYESRNKNDVA,IASQRES,QQYHRLPLS,5.93 nd nd,4/9 (4.10)
KSSQSVLYESRPKNSVA,WASTRES,QCYHRLTLS,4.31 nd nd,2/9 (4.10)
KSSQSVLFESRNKNHVA,WASTRAS,QQYHRLPLS,nd nd nd,1/9 (5.24)
KSQQWVLYESMNKNSVA,WASTRES,QQYHRLPLS,2.01 1.67 2.27,1/9 (4.03)
KSKQSVLYESRNTNSVA,WASTAES,QQYHRLPLS,nd nd nd,0/9
KSSQSVLYESCNKNGVA,WASVRES,QQYHRLPLS,nd nd nd,0/9
KSSQSCLYESRNKHSVA,WASTRES,QQYHRLPLD,nd 3.84 4.54,2/9 (3.45)
KSSQSVLYESRIKNSTA,WASTRES,QAYHRLPLS,nd nd 6.02,5/9 (3.89)
KSIQSVLYTSRNKKSVA,WASTRES,QQYHRLPLS,3.83 nd 3.99,0/9
KSFQSVLYEQRNINSVA,WASTRES,QQYHRLPLS,2.26 2.11 2.40,1/9 (2.96)
KSSWSVLYESRQKNSVA,WPSTRES,QQYHRLPLS,2.25 nd nd,0/9
KSSQSVLYESRNKNMVA,WAQTRES,QQYHRLMLS,nd nd nd,0/9
KSSQSFLYESRNKNSVA,WASTSES,QQYHLLPLS,nd nd nd,1/9 (4.84)
KSSQSVCYESRNKNSVA,WASTRHS,QQYHRLPLS,nd nd nd,0/9
KSSQSVMYESRNKNSVN,WAGTRES,QQYHRLPLS,nd 3.24 nd,2/9 (4.41)
KSSQSVLYESRNKNSVA,WASCRVS,QQYHRLPLS,2.39 2.34 2.59,1/9 (4.09)
KSSQSVLYPSRNKNSVA,WASTRES,QQYHRLFHS,0.88 0.97 0.74,5/9 (4.54)
KSDQSVLYESRNKNSIA,WASTRES,QQKHRLPLS,nd nd nd,1/9 (2.35)
GSSSSVLYESRNKNSVA,WASTRES,QLYHRLPLS,2.80 2.68 3.81,4/9 (4.07)
KSSQSVLYESRNKNSSA,WASTRES,QQYHKLPGS,5.70 4.33 nd,4/9 (4.68)
KSSQSWLYESRNKNSVF,WASTRES,QQYRRLPLS,nd 3.56 4.45,2/9 (4.07)
KSSQSTLYESDNKNSVA,WASTRES,QQKHRLPLS,nd nd nd,1/9 (4.36)
KSSQKVLMESRNKKSVA,WASTRES,QQYHRLPLS,1.51 1.61 1.81,2/9 (4.42)
KSSQSVLYESRQKNSNM,WASTRES,QQYHRLPLS,nd nd 5.90,2/9 (4.88)
KSSQSVLYESRQKNSVA,WASTRES,QQYHRLPKS,nd nd 3.46,3/9 (3.83)
KSSQSVLYEHRNKCSVF,WASTRES,QQYHRLPLS,nd nd nd,2/9 (4.33)
KSSQSVLYKSRNKNSVA,WANTRES,DQYHRLPLS,2.99 2.29 2.64,3/9 (4.52)
KSSQSVWIESRNKNSVA,WASTRES,QQYHRLDLS,nd nd nd,1/9 (3.13)
KPSQSVLYESRNKNSVA,WCSTQES,QQYHRLPLS,nd nd nd,1/9 (4.46)
KPSVSVLYEGRNKNSVA,WASTRES,QQYHRLPLS,2.66 2.50 2.74,8/9 (4.62)
KSSQSVLYESRRKNSVA,WASTRES,QQYHRLPLC,4.51 3.92 4.74,3/9 (4.20)
KSSQSVLYESTNHNSVA,WAGTRES,QQYHRLPLS,1.49 1.54 1.73,5/9 (4.27)
KSSQTVLYESRNKNSVA,WASTRES,MQYHRLLLS,nd nd nd,0/9
KSSQSVLYASRNKNSVQ,WASTRES,IQYHRLPLS,4.26 nd 2.80,1/9 (3.81)
KSSPSVLYESRNKYSVA,WASTRES,QQYHRLPLS,1.02 1.17 1.13,5/9 (4.36)
KSQQSVLYESREKNSVA,WASTRES,QQYHRLPLS,1.13 1.31 1.38,4/9 (5.00)
KSSQSVFYESRNKNSVA,IAITRES,QQYHRLPLS,nd nd nd,1/9 (3.68)
KSSQSVLYESRNKNSVA,WASTREQ,QQYHRLPLS,1.28 1.33 1.35,4/9 (4.15)
KSSQSVLYESRNKNSVR,WASTRES,QFYHRIPLS,3.29 nd nd,0/9
KSSQSVMYESRNKNSVA,WASTRQS,KQYHRLPLS,1.00 1.14 1.50,0/9
KSSQSVLYESRNKNSVA,WAQTRES,QQYPRLFLS,1.05 1.29 1.27,2/9 (4.70)
KPSQSMLYEKRNKNSVA,WASTRES,QQYHRLPLS,3.67 2.78 3.21,0/9
KASQSVLYSSRNKNSVA,WASTREL,QQYHRLPLS,0.90 1.24 1.05,4/9 (4.21)
KSSQSVLYEWRNKNSVA,WASTREK,QQYHRLDLS,nd nd nd,1/9 (2.78)
KSTQSVLYESRDKNSVA,WASTRES,QQYHRLPLS,nd nd nd,0/9
KSSQSVLYESRNANSSA,WASTRES,QQSHRLPLS,5.28 3.86 nd,0/9

6 of these entries, quoted again:

CDR-L1,CDR-L2,CDR-L3,log10 Kd (nM) by replicate,empty controls
KSSQSVLYESRNKNSSA,WASTRES,QQYHKLPGS,5.70 4.33 nd,4/9 (4.68)
KSSQSVLYPSRNKNSVA,WASTRES,QQYHRLFHS,0.88 0.97 0.74,5/9 (4.54)
KSSQSVLYESRIKNSTA,WASTRES,QAYHRLPLS,nd nd 6.02,5/9 (3.89)
KSSPSVLYESRNKYSVA,WASTRES,QQYHRLPLS,1.02 1.17 1.13,5/9 (4.36)
KPSVSVLYEGRNKNSVA,WASTRES,QQYHRLPLS,2.66 2.50 2.74,8/9 (4.62)
KSSQSVLYESRNKNSVA,WASCRVS,QQYHRLPLS,2.39 2.34 2.59,1/9 (4.09)

From the AlphaSeq antibody data of Engelhart et al. 2022 (doi:10.1038/s41597-022-01779-4), copy in the FLAb collection.